Measurements as given in patent publication US4948782A, “A method of promoting the growth of domestic animals with erythromycin derivative containing composition” (Kitasato Kenkyusho, priority 1987, dated 1990).
Values after ≈ are worked out from the molar mass of the structure shown.

Assays:
Type in all cases: cell-based
[1] = system: Klebsiella pneumoniae ATCC 10031; assay: MIC, Klebsiella pneumoniae ATCC 10031 (KP)
Bacillus cereus IFO 3001 = assay: MIC, Bacillus cereus IFO 3001 (BC)
Escherichia coli NIHJ = assay: MIC, Escherichia coli NIHJ (EC)
Bacillus subtilis = assay: MIC, Bacillus subtilis (BS)

CC[C@H]1OC(=O)[C@H](C)[C@@H](O[C@H]2C[C@@](C)(OC)[C@@H](O)[C@H](C)O2)[C@H](C)[C@@H](O[C@@H]2O[C@H](C)C[C@H](N(C)C)[C@H]2O)[C@@]2(C)CC(C)C3(O[C@@]1(C)[C@H](O)[C@H]3C)O2 (stereo partly shown) [*2 (EM202), Anhydroerythromycin A, reference compound]
MIC KP [1]: > 100 mg/L
MIC BC (Bacillus cereus IFO 3001): 6.25 mg/L (≈ 8.73 µM)
MIC EC (Escherichia coli NIHJ): > 100 mg/L
MIC BS (Bacillus subtilis): 6.25 mg/L (≈ 8.73 µM)
